According to article PMC8958509 (Journal of Medicinal Chemistry, 2022):

Tested on: H. pylori contemporary clinical isolates
Experiment: MIC against contemporary clinical isolates
Type: cell-based, Helicobacter pylori
Details: H. pylori isolates USA (N = 200)

## Cc1ncc([N+](=O)[O-])n1CCO [metronidazole, reference compound]
  MIC range: 0.25 to 256 µg/mL
